Source: PubChem BioAssay (NCI)
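Compound exposure: 48 hours, 5 concentrations, 96-well plates. Abbreviation: GI50, concentration required for 50% inhibition of growth. TGI is the concentration that stops growth completely.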

Columns and labels:
Assay in all cases: DTP human tumour cell line panel, 48 h
SK-MEL-2 melanoma = system: SK-MEL-2 melanoma
OVCAR-5 ovarian = system: OVCAR-5 ovarian
MALME-3M melanoma = system: MALME-3M melanoma
SNB-19 CNS = system: SNB-19 CNS
A549 NSCLC = system: A549 NSCLC
ACHN renal = system: ACHN renal
MDA-MB-231 breast = system: MDA-MB-231 breast
UACC-257 melanoma = system: UACC-257 melanoma
SF-539 CNS = system: SF-539 CNS
MDA-MB-435 = system: MDA-MB-435
HCT-116 colon = system: HCT-116 colon
MOLT-4 leukemia = system: MOLT-4 leukemia
IGROV1 ovarian = system: IGROV1 ovarian
HCT-15 colon = system: HCT-15 colon
M14 melanoma = system: M14 melanoma
OVCAR-4 ovarian = system: OVCAR-4 ovarian
CAKI-1 renal = system: CAKI-1 renal
RPMI-8226 leukemia = system: RPMI-8226 leukemia
A498 renal = system: A498 renal
MDA-N = system: MDA-N
SNB-75 CNS = system: SNB-75 CNS
SF-268 CNS = system: SF-268 CNS
NCI-H460 lung = system: NCI-H460 lung
HOP-62 NSCLC = system: HOP-62 NSCLC
PC-3 prostate = system: PC-3 prostate
EKVX NSCLC = system: EKVX NSCLC
U251 CNS = system: U251 CNS
NCI-H322M lung = system: NCI-H322M lung
SF-295 CNS = system: SF-295 CNS
LOX IMVI melanoma = system: LOX IMVI melanoma
SR leukemia = system: SR leukemia
OVCAR-3 ovarian = system: OVCAR-3 ovarian
SK-OV-3 ovarian = system: SK-OV-3 ovarian
SK-MEL-28 melanoma = system: SK-MEL-28 melanoma
NCI-H522 lung = system: NCI-H522 lung
SW-620 colon = system: SW-620 colon
RXF 393 renal = system: RXF 393 renal
NCI-H226 lung = system: NCI-H226 lung
HL-60(TB) leukemia = system: HL-60(TB) leukemia
KM12 colon = system: KM12 colon
NCI-H23 lung = system: NCI-H23 lung
T-47D breast = system: T-47D breast
HCC-2998 colon = system: HCC-2998 colon
COLO 205 colon = system: COLO 205 colon
SN12C renal = system: SN12C renal
UO-31 renal = system: UO-31 renal
CCRF-CEM leukemia = system: CCRF-CEM leukemia
SK-MEL-5 melanoma = system: SK-MEL-5 melanoma
786-0 renal = system: 786-0 renal
NCI/ADR-RES ovarian = system: NCI/ADR-RES ovarian
HT29 colon = system: HT29 colon
TK-10 renal = system: TK-10 renal
MCF7 breast = system: MCF7 breast
DU-145 prostate = system: DU-145 prostate
HOP-92 NSCLC = system: HOP-92 NSCLC
OVCAR-8 ovarian = system: OVCAR-8 ovarian

Q: What does the source list for `CC1=CC2OC3CC4OC(=O)/C=C/C=C/C(=O)OCCC(C)C(O)C(=O)OCC2(CC1O)C4(C)C31CO1` (stereo not given)?
A: GI50 (SK-MEL-2 melanoma): < 1 nM; TGI (SK-MEL-2 melanoma): 2.71 nM; GI50 (OVCAR-5 ovarian): 17.8 nM; TGI (OVCAR-5 ovarian): 69.2 nM; GI50 (MALME-3M melanoma): 1.62 nM; TGI (MALME-3M melanoma): 3.3 nM; GI50 (SNB-19 CNS): 1.38 nM; TGI (SNB-19 CNS): 4.42 nM; GI50 (A549 NSCLC): 9.94 nM; TGI (A549 NSCLC): 58.3 nM; GI50 (ACHN renal): 3.28 nM; TGI (ACHN renal): 17.5 nM; GI50 (MDA-MB-231 breast): 5.93 nM; TGI (MDA-MB-231 breast): 33.2 nM; GI50 (UACC-257 melanoma): 1.17 nM; TGI (UACC-257 melanoma): 3.24 nM; GI50 (SF-539 CNS): < 1 nM; TGI (SF-539 CNS): 1.45 nM; GI50 (MDA-MB-435): < 1 nM; TGI (MDA-MB-435): 1.84 nM; GI50 (HCT-116 colon): < 1 nM; TGI (HCT-116 colon): 2.17 nM; GI50 (MOLT-4 leukemia): < 1 nM; TGI (MOLT-4 leukemia): < 1 nM; GI50 (IGROV1 ovarian): 1.63 nM; TGI (IGROV1 ovarian): 6.55 nM; GI50 (HCT-15 colon): < 1 nM; TGI (HCT-15 colon): 3.83 nM; GI50 (M14 melanoma): 1.23 nM; TGI (M14 melanoma): 2.13 nM; GI50 (OVCAR-4 ovarian): 2.43 nM; TGI (OVCAR-4 ovarian): 6.4 nM; GI50 (CAKI-1 renal): 7.47 nM; TGI (CAKI-1 renal): 40.9 nM; GI50 (RPMI-8226 leukemia): < 1 nM; GI50 (A498 renal): 2.32 nM; TGI (A498 renal): 5.09 nM; GI50 (MDA-N): 1.22 nM; TGI (MDA-N): 2.7 nM; GI50 (SNB-75 CNS): < 1 nM; TGI (SNB-75 CNS): 1.64 nM; GI50 (SF-268 CNS): 2.96 nM; TGI (SF-268 CNS): 13.6 nM; GI50 (NCI-H460 lung): 1.34 nM; TGI (NCI-H460 lung): 4.32 nM; GI50 (HOP-62 NSCLC): 1.61 nM; TGI (HOP-62 NSCLC): 6.48 nM; GI50 (PC-3 prostate): 3.19 nM; TGI (PC-3 prostate): 12.7 nM; GI50 (EKVX NSCLC): 17.1 nM; TGI (EKVX NSCLC): 59.7 nM; GI50 (U251 CNS): 1.36 nM; TGI (U251 CNS): 4.34 nM; GI50 (NCI-H322M lung): 14.6 nM; TGI (NCI-H322M lung): 63.5 nM; GI50 (SF-295 CNS): 2.22 nM; TGI (SF-295 CNS): 5.69 nM; GI50 (LOX IMVI melanoma): < 1 nM; TGI (LOX IMVI melanoma): < 1 nM; GI50 (SR leukemia): 74.7 nM; GI50 (OVCAR-3 ovarian): < 1 nM; TGI (OVCAR-3 ovarian): 3.07 nM; GI50 (SK-OV-3 ovarian): 2.19 nM; TGI (SK-OV-3 ovarian): 7.38 nM; GI50 (SK-MEL-28 melanoma): < 1 nM; TGI (SK-MEL-28 melanoma): 1.68 nM; GI50 (NCI-H522 lung): < 1 nM; TGI (NCI-H522 lung): < 1 nM; GI50 (SW-620 colon): 2.05 nM; TGI (SW-620 colon): 11 nM; GI50 (RXF 393 renal): 1.2 nM; TGI (RXF 393 renal): 3.16 nM; GI50 (NCI-H226 lung): 1.63 nM; TGI (NCI-H226 lung): 2.35 nM; GI50 (HL-60(TB) leukemia): < 1 nM; TGI (HL-60(TB) leukemia): < 1 nM; GI50 (KM12 colon): < 1 nM; TGI (KM12 colon): 1.68 nM; GI50 (NCI-H23 lung): 4.18 nM; TGI (NCI-H23 lung): 17.2 nM; GI50 (T-47D breast): 1.26 nM; TGI (T-47D breast): 3.01 nM; GI50 (HCC-2998 colon): 1.11 nM; TGI (HCC-2998 colon): 2.96 nM; GI50 (COLO 205 colon): 1.52 nM; TGI (COLO 205 colon): 3.36 nM; GI50 (SN12C renal): 3.86 nM; TGI (SN12C renal): 25.8 nM; GI50 (UO-31 renal): 16.3 nM; TGI (UO-31 renal): 50 nM; GI50 (CCRF-CEM leukemia): < 1 nM; TGI (CCRF-CEM leukemia): 2.03 nM; GI50 (SK-MEL-5 melanoma): < 1 nM; TGI (SK-MEL-5 melanoma): < 1 nM; GI50 (786-0 renal): 2.12 nM; TGI (786-0 renal): 11.1 nM; GI50 (NCI/ADR-RES ovarian): 136 nM; TGI (NCI/ADR-RES ovarian): 648 nM; GI50 (HT29 colon): 1.14 nM; TGI (HT29 colon): 4.81 nM; GI50 (TK-10 renal): 2.15 nM; TGI (TK-10 renal): 9.67 nM; GI50 (MCF7 breast): < 1 nM; TGI (MCF7 breast): < 1 nM; GI50 (DU-145 prostate): 3.74 nM; TGI (DU-145 prostate): 19.9 nM; GI50 (HOP-92 NSCLC): 1.08 nM; TGI (HOP-92 NSCLC): 3.29 nM; GI50 (OVCAR-8 ovarian): 3.41 nM; TGI (OVCAR-8 ovarian): 21.9 nM
